# According to US20090131702A1, “METHOD FOR THE PRODUCTION OF METAL CARBOXYLATES AND THE METAL AMINOATE OR METAL HYDROXY ANALOGUE METHIONATE DERIVATIVES THEREOF, AND USE OF SAME AS GROWTH PROMOTERS IN ANIMAL FEED” (NOREL, S.A., priority 2003, published 2009):
# Like-named read-outs stand apart in the source and are kept apart here.
# Key:
# [1] = broilers, 0-21 days; 150 ppm of zinc added to base diet
# [2] = Test of efficacy in piglets: production parameters, zinc glycinate / formate / complex (Example 14); format: in vivo; conditions: 21-50 days, 130 ppm of zinc added to base diet
# Description: The experimental period was 29 days.
# [3] = Zinc concentration in the liver of piglets (Example 11); format: in vivo
# Description: At the end of the experiment, one male and one female were selected at random from each batch to take a specimen of liver tissue and determine the zinc content.
# [4] = piglets, 220 ppm of zinc added to base diet
# [5] = piglets, 21-41 days; 150 ppm of zinc added to base diet
# [6] = Test in broilers: production parameters, zinc methioninate / formate / complex (Example 12); format: in vivo, broilers of the Ross strain; conditions: 50 ppm of zinc added to base diet
# Description: Four experimental treatments were used, comprising the same basic diet supplemented with different sources of zinc:
# Control of production parameters was effected at 21 and 42 days of age, recording the live weight and the consumption of feed per batch.
smiles,measurement,setting,value
"O=C[O-].O=C[O-].[Zn+2] [zinc formate, Zinc formate]",IC (index of conversion),[1],1.26 b
same,IC (index of conversion),[2],1.75 b
same,ratio of zinc in the liver to zinc in the diet (in words),[3]; 220 ppm of zinc,highest ratio
same,Ratio Zn in liver/Zn in diet,"[3]; end of 21-day experiment, 220 ppm of zinc added to base diet",25.5c
same,IC (index of conversion),[4]; 21-28 days,1.16 b
same,IC (index of conversion),[4]; 21-42 days,1.47 b
same,IC (index of conversion),[5],1.63 b
same,IC (index of conversion),[6]; 0-21 days,1.37 b
same,IC (index of conversion),[6]; 0-42 days,1.82 b
same,IC (index of conversion),[6]; 21-42 days,2.03 b
